Each block holds one substance with its values, some of them ahead of it.
How the values were obtained:
[1] = molecular target: mannose-6-phosphate receptor (MPR) on Pompe patient fibroblasts (human (Pompe patient fibroblasts)) (UniProt P11717); test: cell-based or functional assay
[2] = molecular target: soluble extracellular domain of the bovine cation independent mannose-6-phosphate receptor (CI-MPR) (bovine) (UniProt P08169); test: CI-MPR Affigel-15 column, 6 ug rhGAA loaded, eluted with mannose-6-phosphate gradient, fractions assayed by 4MU-alpha-glucoside assay or ELISA

Kuptake GM248 (nM); C3-S grown in CD-CHO medium [1]: 2.1 nM
Kuptake GM248 (nM); C3-S grown in JRH-302 medium [1]: 1.9 nM
Substance: recombinant human acid alpha-glucosidase (rhGAA) from G71 transfectant C3-S (GAA1-M), adapted to suspension culture (from UniProt P10253 70-952) (enzyme)

Kuptake GM248 (nM); B7 grown in JRH-302 medium [1]: 1.6 nM
Substance: recombinant human acid alpha-glucosidase (rhGAA) from CHOK1 transfectant B7 (GAA1) (from UniProt P10253 70-952) (enzyme)

percent of enzyme bound to immobilized MPR [2]: 70%
Kuptake GM248 (nM); F5 grown in JRH-302 medium [1]: 2.2 nM
Substance: recombinant human acid alpha-glucosidase (rhGAA) from G71 transfectant F5 (GAA1-M) (from UniProt P10253 70-952) (enzyme)

Kuptake (rate of enzyme uptake) into GM244 Pompe patient fibroblasts, 4 h, GAA activity in lysate by 4MU-alpha-glucoside assay [1]: 2.95 nM
Substance: recombinant human acid alpha-glucosidase (rhGAA) from DUXB11 CHO clone 3.1.36 (from UniProt P10253 57-952) (enzyme)

— patent US20090191178A1
